# Measurements taken from ChEMBL document CHEMBL1135117, “Identification of potent and selective oxytocin antagonists. Part 2: further investigation of benzofuran derivatives” (Bioorg Med Chem Lett, 2002).
# Target: T1, Oxytocin receptor (Rattus norvegicus, UniProt P70536)
# T1 sequence (P70536 whole entry): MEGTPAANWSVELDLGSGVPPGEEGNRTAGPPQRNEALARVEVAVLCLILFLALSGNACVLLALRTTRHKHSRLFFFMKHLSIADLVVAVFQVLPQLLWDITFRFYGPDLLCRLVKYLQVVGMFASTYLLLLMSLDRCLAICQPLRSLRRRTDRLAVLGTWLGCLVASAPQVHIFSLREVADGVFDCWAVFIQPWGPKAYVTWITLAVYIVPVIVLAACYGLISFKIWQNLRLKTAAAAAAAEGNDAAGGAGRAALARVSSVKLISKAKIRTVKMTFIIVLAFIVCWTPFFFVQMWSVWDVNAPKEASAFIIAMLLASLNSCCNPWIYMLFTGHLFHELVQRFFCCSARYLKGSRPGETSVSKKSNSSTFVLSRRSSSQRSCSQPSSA
# Assay: Compound was tested for displacement of 3[H] oxytocin from rat OT receptor (in vitro)
# Type: functional
smiles,measurement,value
COc1cc(OC2CCN(C(C)=O)CC2)ccc1C(=O)N1CCC(N2C(=O)OCc3ccccc32)CC1,IC50,640 nM
